Measurements as given in ChEMBL document CHEMBL1156157, “1,7-Disubstituted oxyindoles are potent and selective EP(3) receptor antagonists” (Bioorg Med Chem Lett, 2010).

Legend:
Homo sapiens [1] = organism: Homo sapiens; test: Selectivity ratio of IC50 for human EP3 receptor to IC50 for human IP receptor
Homo sapiens [2] = organism: Homo sapiens; test: Selectivity ratio if IC50 for human EP3 receptor to IC50 for human FP receptor
Homo sapiens [3] = organism: Homo sapiens; test: Selectivity ratio of IC50 for human EP3 receptor to IC50 for human EP1 receptor
Homo sapiens [4] = organism: Homo sapiens; test: Selectivity ratio of IC50 for human EP3 receptor to IC50 for human EP2 receptor
Homo sapiens [5] = organism: Homo sapiens; test: Selectivity ratio of IC50 for human EP3 receptor to IC50 for human EP4 receptor

Measured: Ratio IC50

O=C(/C=C/c1cccc2c1N(Cc1ccc3ccccc3c1)C(=O)C2O)NS(=O)(=O)c1ccc(F)cc1 (stereo not given)
> 1000: all assays above
